Measurements published in paper PMC10725471, “Chemical modulation of cytosolic BAX homodimer potentiates BAX activation and apoptosis” (Nature Communications, 2023).

By UniProt entry, the sequences of proteins in these tests, tags left out.
UniProt Q07812, whole entry: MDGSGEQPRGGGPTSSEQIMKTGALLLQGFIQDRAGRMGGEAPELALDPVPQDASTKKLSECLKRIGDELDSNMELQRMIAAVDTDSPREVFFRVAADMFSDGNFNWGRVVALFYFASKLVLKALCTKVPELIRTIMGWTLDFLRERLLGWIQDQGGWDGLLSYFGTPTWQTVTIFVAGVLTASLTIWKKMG

Target: cytosolic inactive BAX dimer of CALU-6 cells (Homo sapiens, UniProt Q07812)
Experiment: BN-PAGE assay for disruption of cytosolic inactive BAX dimer
Assay type: biochemical
Conditions: CALU-6 cytosolic fraction, 50 µM, 1 h at 30 °C, on ice for BIM SAHB

SMILES: O=C1/C(=N\Nc2nccs2)C(c2ccccc2)=NN1c1nc(-c2ccccc2)cs1
- disruption of cytosolic inactive BAX dimer (result in words): no capacity to disrupt the cytosolic inactive BAX dimer
